Here are results for one compound from patent publication US8859783B2, “Indirubin-3′-oxime derivatives as potent cyclin dependent kinase inhibitors” (Anygen Co., Ltd., priority 2010, dated 2014).

The experiment deals with T1, Aurora A (Homo sapiens, UniProt O14965).
T1 construct: Recombinant proteins containing kinase domain were purchased from Millipore (Billerica, Mass.); purchased Millipore (Billerica, Mass.)
T1 sequence (O14965 133-383 limits assumed): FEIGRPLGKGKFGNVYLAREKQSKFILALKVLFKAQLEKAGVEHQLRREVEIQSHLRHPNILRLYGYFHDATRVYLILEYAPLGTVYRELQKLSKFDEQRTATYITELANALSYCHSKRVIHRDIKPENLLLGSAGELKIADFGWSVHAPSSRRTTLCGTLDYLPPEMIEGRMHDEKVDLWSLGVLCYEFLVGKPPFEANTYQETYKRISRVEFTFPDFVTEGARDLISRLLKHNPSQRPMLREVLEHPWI
Kind of experiment: HTRF kinase assay, Aurora A. The following applies: dose response curves; read-out: IC50 against Aurora A. Type of experiment: biochemical. The protocol:
Inhibition of kinase activity against a variety of recombinant kinases (c-Met, Met M1250T, Ron, VEGF2, EGFR, TrkA, PI3Kγ, IKKβ Insulin receptor, Aurora A) was measured using homogeneous time-resolved fluorescence (HTRF) assays. Briefly, assays are based on the phosphorylation of peptide substrates in the presence of ATP. Resulting phosphorylated substrates are detected by TR-FRET (Time Resolved-Fluorescence Resonance Energy Transfer) signal. Recombinant proteins containing kinase domain were purchased from Millipore (Billerica, Mass.). Optimal enzyme, ATP, and substrate concentrations were established for each enzyme using HTRF KinEASE kit (Cisbio) according to the manufacturer's instruction. Assays are consisted of enzymes mixed with serially diluted compounds and peptide substrates in kinase reaction buffer (250 mM HEPES (pH 7.0), 0.5 mM orthovanadate, 0.05% BSA, 0.1% NaN3). Following the addition of reagents for detection, TR-FRET signal was measured using EnVision multi-label reader (Perkin Elmer, Waltham, Mass.).

Regarding `O=C1Nc2ccc([N+](=O)[O-])cc2/C1=C1/Nc2ccc(O)cc2C1=NO` [Compound 11b, (2′Z, 3′E)-5′-Hydroxy-5-nitro-indirubin-3′-oxime], the IC50 (as a rule, the midpoint of a concentration-inhibition curve) turned out to be 1 µM.
